For one assay, the system named is OPN promoter. In words: OPN promoter luciferase reporter assay in melanoma cell lines. In general terms: A reporter such as luciferase makes a cellular process visible.
The test system of another assay is RAW264.7 cells. In words: Osteoclast resorption activity, OAAS plates.

The values that follow come from patent publication US9464291B2, “Methods and compositions for the treatment of cancer” (University of South Alabama, priority 2012, dated 2016).

For `CC1=C2C[C@H]3[C@@H](CC=C4C[C@@H](O)CC[C@@]43C)[C@@H]2CC[C@]12O[C@@H]1C[C@H](C)CN[C@H]1[C@H]2C` [cyclopamine], the OPN promoter activity result in the assay on OPN promoter (MCC012A, 10 μM) was “noticeable, but not significant (p=0.06) decrease”; in the assay on OPN promoter (MCC012A, 20 μM) it was “significant decrease (p=0.0006)”; in the assay with OPN promoter (MCC012F, 10 μM and 20 μM), “significant (p=0.042 and 0.002, respectively) decrease”; in the assay with OPN promoter (MDA-MB-435, MCC012A, MCC012F), “decreases the activity of the OPN promoter”. Moreover, the “differentiation and resorptive activity potentiated by breast cancer cell-conditioned medium” value with RAW264.7 cells (cyclopamine 20 μM) is “remarkably compromised”. In addition, the “ability of MDA-MB-435 cells to activate resorptive function” value in the assay with RAW264.7 cells (tumor cells treated with cyclopamine) is “significantly reduced their ability to activate the resorptive function”.
